PubChem BioAssay (EPA / NIEHS)
The list shows a part of the results, in another mix than the full data. Where a structure was tested more than once in an assay, its records may differ in their call. Activity calls are given as the source filed them. Rule for the calls: active = hit-call score of the fitted dose curve at least 0.9, where 1 is the maximum; inactive = score below 0.9.

Test: ATG_PPRE_CIS: Attagene CIS-FACTORIAL HepG2 Assay for human Peroxisome Proliferator-activated Response Element (PPRE) (AID 2282958)
Details: HepG2 PPRE cis-element reporter, Attagene transcription factor profiling; actives raise or lower the signal

**Q.** With C#CC(O)C(CC)CCCC (configuration not stated) as the compound, how does the outcome read?
**A.** inactive

**Q.** For CN(C[C@@H](CC[N+]12CCC(C3CCCCC3)(CC1)CC2)c1ccc(Cl)c(Cl)c1)C(=O)c1cc(C(F)(F)F)cc(C(F)(F)F)c1, which outcome is on record?
**A.** inactive

**Q.** For COc1cc(C(C)C)c2c(c1)S(=O)(=O)N(COc1cc(=O)n3cccc(OCCN4CCCCC4)c3n1)C2=O, which AC50 is on record?
**A.** active: 4.62 µM

**Q.** For CCCCCCCCCCCCCC(=O)O, which AC50 is on record?
**A.** active: 124 µM

**Q.** Which outcome does the source give for COC(=O)c1ccc(C(=O)OC)cc1 here?
**A.** inactive

**Q.** With CCC1(c2ccccc2)C(=O)NCNC1=O as the compound, how does the outcome read?
**A.** inactive

**Q.** Which outcome does the source give for CSc1c(Cl)c(Cl)c(Cl)c(Cl)c1Cl here?
**A.** inactive

**Q.** Which outcome does the source give for CC(CN1c2ccccc2Sc2ccccc21)N(C)C (configuration not stated) here?
**A.** inactive

**Q.** Which outcome does the source give for C=C(C)[C@@H]1CCC2=CCC[C@@H](C)[C@]2(C)C1 here?
**A.** inactive

**Q.** With CC(C)C(=O)Nc1ccc([N+](=O)[O-])c(C(F)(F)F)c1 as the compound, how does the AC50 read?
**A.** active: 38.6 µM

**Q.** Which outcome does the source give for O=C1OC(=O)c2cc(Oc3ccc4c(c3)C(=O)OC4=O)ccc21 here?
**A.** inactive

**Q.** With CCCCCCCCN1CCCC1=O as the compound, how does the outcome read?
**A.** inactive

**Q.** For O=C(O)c1ccc2c(c1)C(=O)OC2=O, which outcome is on record?
**A.** inactive

**Q.** With CCCC[N+]1(C)CCCC1 as the compound, how does the outcome read?
**A.** inactive

**Q.** Which outcome does the source give for O=C(OC[C@H]1O[C@@H](OC(=O)c2cc(O)c(O)c(OC(=O)c3cc(O)c(O)c(O)c3)c2)[C@H](OC(=O)c2cc(O)c(O)c(OC(=O)c3cc(O)c(O)c(O)c3)c2)[C@@H](OC(=O)c2cc(O)c(O)c(OC(=O)c3cc(O)c(O)c(O)c3)c2)[C@@H]1OC(=O)c1cc(O)c(O)c(OC(=O)c2cc(O)c(O)c(O)c2)c1)c1cc(O)c(O)c(OC(=O)c2cc(O)c(O)c(O)c2)c1 here?
**A.** inactive

**Q.** With CCCCCCCCCCCC as the compound, how does the AC50 read?
**A.** active: 2.7 µM

**Q.** And the outcome?
**A.** inactive
